Assay [1] addresses T1, CD22 (Homo sapiens, UniProt P20273). The assay can be described thus: SPR binding of humanized anti-CD22 antibodies (mAb supernatant) to human CD22. Also on record: human CD22 (d1 to d7 domain according to NP_001762.2). The procedure:
Binding of humanized anti-CD22 antibodies to human CD22 was measured by surface plasmon resonance (SPR). For assessment of binding by SPR, biotinylated protein A (15 μg/mL) was immobilized to the surface of an NLC chip. 30 μL of mAb supernatant was added to 150 μL of PBS-T and captured over the protein A surface. […]

Assay [2] concerns the target T1, CD22. The assay can be described thus: SPR binding of RL1 N92 substitution variants to CD22. As to conditions: for ka / kd: SPR, N92 variants of RL1 VL domain vs TNT70. The method, then:
Humanized anti-CD22 antibodies described in Example 5 were next analyzed for potential sequence liabilities. A potential Asn deamination site is present in the CDR-L3 ([…]) of all humanized variants (FIG. 8B). This site was mutated in the RL1 VH domain to create antibody variants, which were tested for the impact of mutation on binding affinity to CD22. For engineering variants, […] was mutated to all possible amino acids. […] Binding properties of the mutants are summarized below and in FIGS. 15C-15F. All of the […] substitutions looked to be tolerable with respect to binding affinity to CD22.

Setting [3] is: SPR, mAb supernatant captured on protein A, human CD22-gly.

B1: TNT81: one of the "humanized RFB4 variants" that bind human CD22; "higher affinity (~0.1 nM) than RFB4" (antibody)
heavy: EVQLVESGGGLVQPGGSLRLSCAASGFAFSIYDMSWVRQAPGKGLEWVAYISSGGGTTYYPDTVKGRFTISRDNSKNTLYLQMNSLRAEDTAVYYCARHSGYGTHWGVLFAYWGRGTLVTVSSASTKGPSVFPLAPSSKSTSGGTAALGCLVKDYFPEPVTVSWNSGALTSGVHTFPAVLQSSGLYSLSSVVTVPSSSLGTQTYICNVNHKPSNTKVDKKVEPKSCDKTHTCPPCPAPEAAGAPSVFLFPPKPKDTLMISRTPEVTCVVVDVSHEDPEVKFNWYVDGVEVHNAKTKPREEQYNSTYRVVSVLTVLHQDWLNGKEYKCKVSNKALPAPIEKTISKAKGQPREPQVYTLPPSREEMTKNQVSLTCLVKGFYPSDIAVEWESNGQPENNYKTTPPVLDSDGSFFLYSKLTVDKSRWQQGNVFSCSVMHEALHNHYTQKSLSLSPGRPQGFGPP
light: EIVLTQSPATLSLSPGERATLSCRASQDIHGYLNWYQQKPGQAPRLLIYYTSILHSGIPARFSGSGPGTDFTLTISSLEPEDFAVYYCQQGNTLPWTFGGGTKLEIKRTVAAPSVFIFPPSDEQLKSGTASVVCLLNNFYPREAKVQWKVDNALQSGNSQESVTEQDSKDSTYSLSSTLTLSKADYEKHKVYACEVTHQGLSSPVTKSFNRGEC
In the assay with CD22 [1] (setting [3]), B1 returned a ka of 169000 M⁻¹ s⁻¹ and a kd of 0.000117 s⁻¹. Further, in the assay with CD22 [1] (human CD22 d1 to d7 domain, read-out: affinity of binding to human CD22), the Kd was around 0.1 nM.

B2: N92D: humanized anti-CD22 antibody variant: CDR-L3 N92 "mutated in the RL1 VH domain" to D; compared to TNT70 (antibody, V domains shown)
VH: QVQLLESGGGVVQPGGSLRLSCAASGFAFSIYDMNWVRQAPGKGLEWVSAISSGGGTTYYADSVKGRFTISRDNAKNSLYLQMNSLRAEDTAVYYCARHSGYGTHWGVLFAYWGRGTLVTVSS
VL: DIQMTQSPSSLSASVGDRVTITCRASQDIHGYLNWYQQKPGKAPKLLIYYTSILHSGVPSRFSGSGSGTDFTLTISSLQPEDFATYFCQQGDTLPWTFGQGTKLEIK
For the molecule B2, in the assay with CD22 [2], the “binding affinity to CD22 relative to parental antibody” value was “comparable to the parental antibody”, the ka came to 146000 M⁻¹ s⁻¹ and the kd was determined as 5.05e-05 s⁻¹.

B3: N92C: humanized anti-CD22 antibody variant: CDR-L3 N92 "mutated in the RL1 VH domain" to C; compared to TNT70 (antibody, V domains shown)
VH: QVQLLESGGGVVQPGGSLRLSCAASGFAFSIYDMNWVRQAPGKGLEWVSAISSGGGTTYYADSVKGRFTISRDNAKNSLYLQMNSLRAEDTAVYYCARHSGYGTHWGVLFAYWGRGTLVTVSS
VL: DIQMTQSPSSLSASVGDRVTITCRASQDIHGYLNWYQQKPGKAPKLLIYYTSILHSGVPSRFSGSGSGTDFTLTISSLQPEDFATYFCQQGCTLPWTFGQGTKLEIK
In the assay with CD22 [2], B3 yielded a ka of 111000 M⁻¹ s⁻¹ and a kd of 7.13e-05 s⁻¹.

B4: N92T: humanized anti-CD22 antibody variant: CDR-L3 N92 "mutated in the RL1 VH domain" to T; compared to TNT70 (antibody, V domains shown)
VH: QVQLLESGGGVVQPGGSLRLSCAASGFAFSIYDMNWVRQAPGKGLEWVSAISSGGGTTYYADSVKGRFTISRDNAKNSLYLQMNSLRAEDTAVYYCARHSGYGTHWGVLFAYWGRGTLVTVSS
VL: DIQMTQSPSSLSASVGDRVTITCRASQDIHGYLNWYQQKPGKAPKLLIYYTSILHSGVPSRFSGSGSGTDFTLTISSLQPEDFATYFCQQGTTLPWTFGQGTKLEIK
In the assay with CD22 [2], B4 registered a ka of 149000 M⁻¹ s⁻¹ and a kd of 7.85e-05 s⁻¹.

B5: N92H: humanized anti-CD22 antibody variant: CDR-L3 N92 "mutated in the RL1 VH domain" to H; compared to TNT70 (antibody, V domains shown)
VH: QVQLLESGGGVVQPGGSLRLSCAASGFAFSIYDMNWVRQAPGKGLEWVSAISSGGGTTYYADSVKGRFTISRDNAKNSLYLQMNSLRAEDTAVYYCARHSGYGTHWGVLFAYWGRGTLVTVSS
VL: DIQMTQSPSSLSASVGDRVTITCRASQDIHGYLNWYQQKPGKAPKLLIYYTSILHSGVPSRFSGSGSGTDFTLTISSLQPEDFATYFCQQGHTLPWTFGQGTKLEIK
As for B5, in the assay with CD22 [2], the ka amounted to 149000 M⁻¹ s⁻¹ and the kd amounted to 6.08e-05 s⁻¹.

B6: N92G: humanized anti-CD22 antibody variant: CDR-L3 N92 "mutated in the RL1 VH domain" to G; compared to TNT70 (antibody, V domains shown)
VH: QVQLLESGGGVVQPGGSLRLSCAASGFAFSIYDMNWVRQAPGKGLEWVSAISSGGGTTYYADSVKGRFTISRDNAKNSLYLQMNSLRAEDTAVYYCARHSGYGTHWGVLFAYWGRGTLVTVSS
VL: DIQMTQSPSSLSASVGDRVTITCRASQDIHGYLNWYQQKPGKAPKLLIYYTSILHSGVPSRFSGSGSGTDFTLTISSLQPEDFATYFCQQGGTLPWTFGQGTKLEIK
In the assay with CD22 [2], B6 returned a ka of 151000 M⁻¹ s⁻¹ and a kd of 6.8e-05 s⁻¹.

B7: N92E: humanized anti-CD22 antibody variant: CDR-L3 N92 "mutated in the RL1 VH domain" to E; compared to TNT70 (antibody, V domains shown)
VH: QVQLLESGGGVVQPGGSLRLSCAASGFAFSIYDMNWVRQAPGKGLEWVSAISSGGGTTYYADSVKGRFTISRDNAKNSLYLQMNSLRAEDTAVYYCARHSGYGTHWGVLFAYWGRGTLVTVSS
VL: DIQMTQSPSSLSASVGDRVTITCRASQDIHGYLNWYQQKPGKAPKLLIYYTSILHSGVPSRFSGSGSGTDFTLTISSLQPEDFATYFCQQGETLPWTFGQGTKLEIK
Turning to B7, in the assay with CD22 [2], the “binding affinity to CD22 relative to parental antibody” value is “comparable to the parental antibody”, the ka came out at 147000 M⁻¹ s⁻¹ and the kd turned out to be 4.29e-05 s⁻¹.

B8: N92V: humanized anti-CD22 antibody variant: CDR-L3 N92 "mutated in the RL1 VH domain" to V; compared to TNT70 (antibody, V domains shown)
VH: QVQLLESGGGVVQPGGSLRLSCAASGFAFSIYDMNWVRQAPGKGLEWVSAISSGGGTTYYADSVKGRFTISRDNAKNSLYLQMNSLRAEDTAVYYCARHSGYGTHWGVLFAYWGRGTLVTVSS
VL: DIQMTQSPSSLSASVGDRVTITCRASQDIHGYLNWYQQKPGKAPKLLIYYTSILHSGVPSRFSGSGSGTDFTLTISSLQPEDFATYFCQQGVTLPWTFGQGTKLEIK
In the assay with CD22 [2], B8 displayed a ka of 145000 M⁻¹ s⁻¹ and a kd of 8.32e-05 s⁻¹.

B9: N92W: humanized anti-CD22 antibody variant: CDR-L3 N92 "mutated in the RL1 VH domain" to W; compared to TNT70 (antibody, V domains shown)
VH: QVQLLESGGGVVQPGGSLRLSCAASGFAFSIYDMNWVRQAPGKGLEWVSAISSGGGTTYYADSVKGRFTISRDNAKNSLYLQMNSLRAEDTAVYYCARHSGYGTHWGVLFAYWGRGTLVTVSS
VL: DIQMTQSPSSLSASVGDRVTITCRASQDIHGYLNWYQQKPGKAPKLLIYYTSILHSGVPSRFSGSGSGTDFTLTISSLQPEDFATYFCQQGWTLPWTFGQGTKLEIK
In the assay with CD22 [2], B9 registered a ka of 143000 M⁻¹ s⁻¹ and a kd of 7.87e-05 s⁻¹.

B10: N92P: humanized anti-CD22 antibody variant: CDR-L3 N92 "mutated in the RL1 VH domain" to P; compared to TNT70 (antibody, V domains shown)
VH: QVQLLESGGGVVQPGGSLRLSCAASGFAFSIYDMNWVRQAPGKGLEWVSAISSGGGTTYYADSVKGRFTISRDNAKNSLYLQMNSLRAEDTAVYYCARHSGYGTHWGVLFAYWGRGTLVTVSS
VL: DIQMTQSPSSLSASVGDRVTITCRASQDIHGYLNWYQQKPGKAPKLLIYYTSILHSGVPSRFSGSGSGTDFTLTISSLQPEDFATYFCQQGPTLPWTFGQGTKLEIK
In the assay with CD22 [2], B10 registered a ka of 112000 M⁻¹ s⁻¹ and a kd of 7.24e-05 s⁻¹.

B11: N92F: humanized anti-CD22 antibody variant: CDR-L3 N92 "mutated in the RL1 VH domain" to F; compared to TNT70 (antibody, V domains shown)
VH: QVQLLESGGGVVQPGGSLRLSCAASGFAFSIYDMNWVRQAPGKGLEWVSAISSGGGTTYYADSVKGRFTISRDNAKNSLYLQMNSLRAEDTAVYYCARHSGYGTHWGVLFAYWGRGTLVTVSS
VL: DIQMTQSPSSLSASVGDRVTITCRASQDIHGYLNWYQQKPGKAPKLLIYYTSILHSGVPSRFSGSGSGTDFTLTISSLQPEDFATYFCQQGFTLPWTFGQGTKLEIK
As to B11, in the assay with CD22 [2], the “binding affinity to CD22 relative to parental antibody” value was “comparable to the parental antibody”, the ka stood at 155000 M⁻¹ s⁻¹ and the kd came to 4.58e-05 s⁻¹.

The values are drawn from patent US11920136B2, “Transglutaminase-mediated conjugation” (Tallac Therapeutics, Inc., priority 2020, dated 2024).
